Measured values: patent publication US20210046106A1, “METHODS OF TREATING CANCER WITH ANDROGEN DEPRIVATION THERAPY IN COMBINATION WITH AN INHIBITOR OF THE SP1 TRANSCRIPTION FACTOR” (The Board of Trustees of the Leland Stanford Junior …, priority 2019, published 2021)

Experiment: Phase 1 trial: population PK model (NONMEM, 1-compartment, oral absorption) and simulations
Conditions: range 395-790 mcg/L

Structure (SMILES): O=[Se](O)O [sodium selenite, Sodium selenite pentahydrate]
- reaching the desired therapeutic range after a single dose (simulation FIG. 8(a)): only the higher dose levels (33 mg and 49.5 mg) reach the desired therapeutic range
- time to enter the desired therapeutic range (simulation, 11 mg given twice daily): approximately 1 day
